Source: article PMC5464333, “The binding orientations of structurally-related ligands can differ; A cautionary note” (Neuropharmacology, 2017)

The chains behind the UniProt entries cited, without tags or fusion partners. Where a name states a change or a piece, a line headed by the entry shows the natural chain unless it says otherwise. A line that says so, or that is headed by a name, gives the form on record, which may keep a tag or linker.
α7 nACh receptor (UniProt P22770+P23979, M226I/T225I), UniProt P22770+P23979, fused P22770:T225I/P22770:M226I: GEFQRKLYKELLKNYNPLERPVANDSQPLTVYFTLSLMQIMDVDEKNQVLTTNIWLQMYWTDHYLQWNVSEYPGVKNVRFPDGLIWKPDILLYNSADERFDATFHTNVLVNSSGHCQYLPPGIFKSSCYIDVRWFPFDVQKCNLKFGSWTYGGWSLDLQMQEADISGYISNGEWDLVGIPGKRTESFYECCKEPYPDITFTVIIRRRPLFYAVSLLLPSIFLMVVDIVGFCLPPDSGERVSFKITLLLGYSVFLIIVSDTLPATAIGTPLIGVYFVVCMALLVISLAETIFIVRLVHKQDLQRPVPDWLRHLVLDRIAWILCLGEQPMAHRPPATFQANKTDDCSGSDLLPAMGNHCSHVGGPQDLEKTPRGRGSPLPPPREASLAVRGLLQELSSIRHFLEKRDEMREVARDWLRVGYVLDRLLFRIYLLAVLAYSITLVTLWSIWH
UniProt P22770: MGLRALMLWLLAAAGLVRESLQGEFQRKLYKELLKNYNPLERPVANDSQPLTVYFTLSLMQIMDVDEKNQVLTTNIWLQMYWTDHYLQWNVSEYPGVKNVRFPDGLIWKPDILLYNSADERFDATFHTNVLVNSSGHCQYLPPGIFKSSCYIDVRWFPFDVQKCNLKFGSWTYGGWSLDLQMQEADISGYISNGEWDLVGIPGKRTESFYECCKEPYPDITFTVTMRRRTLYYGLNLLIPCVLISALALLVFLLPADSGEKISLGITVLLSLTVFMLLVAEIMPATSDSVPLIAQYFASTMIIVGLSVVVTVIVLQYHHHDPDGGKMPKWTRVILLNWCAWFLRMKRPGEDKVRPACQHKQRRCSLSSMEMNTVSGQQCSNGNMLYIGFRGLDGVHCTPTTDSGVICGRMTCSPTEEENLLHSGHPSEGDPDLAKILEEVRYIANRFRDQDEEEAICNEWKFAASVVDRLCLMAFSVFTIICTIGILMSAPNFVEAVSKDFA
UniProt P23979: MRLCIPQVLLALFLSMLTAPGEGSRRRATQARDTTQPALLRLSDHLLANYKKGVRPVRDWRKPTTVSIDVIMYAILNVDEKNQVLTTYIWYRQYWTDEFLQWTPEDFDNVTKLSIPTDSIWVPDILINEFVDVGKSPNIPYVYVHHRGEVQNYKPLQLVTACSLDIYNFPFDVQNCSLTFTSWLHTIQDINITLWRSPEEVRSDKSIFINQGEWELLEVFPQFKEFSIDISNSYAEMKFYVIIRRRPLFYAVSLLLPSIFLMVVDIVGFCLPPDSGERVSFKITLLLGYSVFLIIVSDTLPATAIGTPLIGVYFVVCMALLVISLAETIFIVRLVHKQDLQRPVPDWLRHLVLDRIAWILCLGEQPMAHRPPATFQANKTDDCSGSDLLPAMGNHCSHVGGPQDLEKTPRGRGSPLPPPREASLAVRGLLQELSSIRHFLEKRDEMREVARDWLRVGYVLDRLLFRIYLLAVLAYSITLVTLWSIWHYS

Target: α7 nACh receptor (UniProt P22770+P23979, M226I/T225I)
Procedure: Human 5-HT3A subunit cDNA (Accession: P46098, kindly provided by J. Peters, Dundee University, UK) was cloned into pcDNA3.1 for expression in HEK293 cells. […] Cells were transiently transfected with either of these cDNA constructs using polyethyleneimine (PEI: 25 kDa, linear, powder, Polysciences Inc., Eppelheim, Germany). 30 μl of PEI (1 mg ml^−1), 5 μg cDNA and 1 ml DMEM were incubated for 10 min at room temperature, added drop wise to a 90 mm plate of 70–80% conﬂuent HEK293 cells, and incubated for 2–3 days before use.
Transfected HEK 293 cells were scraped into 0.6 ml of ice-cold 10 mM HEPES buffer (pH 7.4) and frozen. After thawing, they were washed with HEPES buffer, homogenised by trituration through a 25 gauge (0.5 mm) needle, and 50 μg of cell suspension incubated in 0.5 ml HEPES buffer containing different concentrations of radioligand. […] Equilibrium reactions were incubated on ice for at least 1 h and terminated by vacuum filtration onto Whatman GF/B filters wetted with 0.3% polyethyleneimine, followed by two rapid washes with 2.5 ml ice cold buffer. Radioactivity was measured by scintillation in Ultima Gold XR (Perkin Elmer, Waltham, MA) using a Tri-Carb 2100 TR (PerkinElmer) scintillation counter. Final counts were monitored to ensure that binding never exceeded 10% of the added concentrations of radioligands.
All data were analysed using GraphPad Prism v5. […]

CN1C2CCCC1CC(NC(=O)c1nn(C)c3ccccc13)C2 (stereo not shown) [[^3H]granisetron]
saturation binding: could not be detected
